# Test results published in patent US20210260008A1, “COMBINATION THERAPY FOR TREATING CANCER” (THE JOHNS HOPKINS UNIVERSITY, priority 2018, published 2021).
# Tested on: 2208L breast tumors
# Experiment: 2208L breast tumor mouse model
# Details: mice bearing 2208L breast tumors
compound,measurement,value
"Nc1ncn([C@@H]2O[C@H](CO)[C@@H](O)[C@H]2O)c(=O)n1 [AZA, 4-amino-1-β-D-ribofuranozyl-s-triazin-2(1H)-one]",survival,no benefit in survival
